Experimental data as given in US20230077723A1, “N-SUBSTITUTED-3,4-(FUSED 5-RING)-5-PHENYL-PYRROLIDINE-2-ONE COMPOUNDS AS INHIBITORS OF ISOQC AND/OR QC ENZYME” (Scenic Immunology B.V., priority 2019, published 2023).

Chains of the proteins cited; added tags and fusions are not shown. Residues count along the entry.
UniProt Q16769, 33-361 limits assumed: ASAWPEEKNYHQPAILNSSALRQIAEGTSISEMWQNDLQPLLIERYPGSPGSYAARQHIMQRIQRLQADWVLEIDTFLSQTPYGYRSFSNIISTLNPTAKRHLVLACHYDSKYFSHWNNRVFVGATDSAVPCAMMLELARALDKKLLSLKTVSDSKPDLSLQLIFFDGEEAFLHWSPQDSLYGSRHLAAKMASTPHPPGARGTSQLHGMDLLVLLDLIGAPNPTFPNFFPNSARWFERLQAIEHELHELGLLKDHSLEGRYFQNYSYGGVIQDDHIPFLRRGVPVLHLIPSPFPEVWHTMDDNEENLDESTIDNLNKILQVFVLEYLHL
UniProt Q16769, 29-361 limits assumed: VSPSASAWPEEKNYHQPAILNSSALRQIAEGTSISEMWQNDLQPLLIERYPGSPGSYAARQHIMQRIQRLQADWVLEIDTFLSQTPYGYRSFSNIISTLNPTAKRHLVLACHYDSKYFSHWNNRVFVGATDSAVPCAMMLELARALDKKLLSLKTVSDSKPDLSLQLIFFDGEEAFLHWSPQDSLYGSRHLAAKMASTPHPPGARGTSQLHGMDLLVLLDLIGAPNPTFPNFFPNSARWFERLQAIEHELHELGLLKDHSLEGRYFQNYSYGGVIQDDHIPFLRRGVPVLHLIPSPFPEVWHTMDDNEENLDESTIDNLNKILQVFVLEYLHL
UniProt Q9NXS2, 53-382 limits assumed: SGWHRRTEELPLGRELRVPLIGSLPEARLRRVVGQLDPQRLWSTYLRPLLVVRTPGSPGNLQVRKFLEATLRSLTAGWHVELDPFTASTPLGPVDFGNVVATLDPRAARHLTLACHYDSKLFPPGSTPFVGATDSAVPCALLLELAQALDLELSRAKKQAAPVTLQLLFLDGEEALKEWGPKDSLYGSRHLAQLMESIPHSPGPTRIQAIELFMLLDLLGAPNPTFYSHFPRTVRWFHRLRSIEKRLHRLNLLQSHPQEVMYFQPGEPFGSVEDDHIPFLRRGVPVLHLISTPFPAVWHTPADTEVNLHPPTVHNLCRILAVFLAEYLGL

Legend:
[1] = biological target: recombinant human QC (Homo sapiens, UniProt Q16769); assay: Assay 4 - QC potency, mass spectrometry-based enzymatic potency assay; settings: read-out: QC Pot. Assay No. 4
Procedure: (§1) EC50's of test compounds were determined by incubating 11-point two-fold dilutions of test compound in 20 μL volumes in the presence of 7.5 nM isoQC and 10 μM H-Gln-AMC using 50 mM Tris-HCl pH 8.0 as assay buffer for 2 hours at room temperature before stopping the reaction by the addition of 2 volumes of methanol. Both the substrate and the product of this reaction were read out using an Agilent RapidFire microfluidic solid phase sample extraction system coupled to an AB Sciex API 4000 triple quadrupole mass spectrometer, in negative ion mode, at m/z of 301.9 and 284.9 respectively. The actual readout was defined as P/(S+P), where P is the product signal area and S the substrate signal area. EC50's were calculated by four parameter sigmoidal model fitting.
EC50's of test compounds were determined in the same way as described in Assay 2 above, except that N-terminally His6-tagged recombinant human QC (R&D Systems) was used instead of isoQC.

[2] = tested on: pyroglutamylated CD47 (pE-CD47) in KBM7 cells; assay: Assay 6 - cell-based potency assay (pE-CD47 CC2C6 staining vs total CD47); settings: read-out: Cell Pot. Assay No. 6, 72 hours, CC2C6 signal
Procedure: Cells were spun for 4 minutes at 1500 rpm and washed once with PBS/0.5% BSA. Cells were spun down again and the supernatant was removed and incubated in 100 uL antibody staining solution (PBS/0.5% BSA/0.1 μg/mL DAPI (4′,6-diamidino-2-phenylindole, ThermoFisher Scientific) and a mixture of 1:500 FITC-conjugated anti-human CD47 clone 2D3, which recognizes total CD47 irrespective of its pyroglutamylation state, and 1:500 Alexa647-conjugated anti-human CD47 clone CC2C6, which specifically detects pyroglutamylated CD47) for 2 hours at 4° C. Next, the cells were spun down and washed twice with 2×150 μL PBS/0.5% BSA to remove unbound antibody. Cells were again spun down and taken up in 300 μL FACS buffer before analysis on a Celesta FACS machine (BD Biosciences).
KBM7 cells (Kotecki et al., 1999) were infected with lentivirus produced by transfecting pSCNC-LentiCRISPR-QPCTL or pSCNC-LentiCRISPR-CD47 into HEK-293T cells according to standard protocols. After 24 hours incubation, cells were selected with puromycin (Invivogen, 1 μg/mL) for 48 hours. Cells were stained for total CD47 and pE-CD47 and QPCTL k.o. cells were sorted out as negative for pE-CD47, and CD47 k.o. cells as negative for total CD47, using a FACSAria III and FACS Diva software (BD Biosciences).
In order to test compounds for their effect on pyroglutamylation in live cells, 25000 KBM7 cells per well were seeded in a 96-well U-bottom plate in 150 μl IMDM/10% FCS/1% Pen/Strep medium and a 10-point 2-fold dilution range of test compounds. After 72 hours incubation at 37° C., 5% CO2, cells were stained for total CD47 and pE-CD47 and analyzed on a BD Celesta using FACS Diva software (BD Biosciences). Cells gated for DAPI negativity were recorded and the median fluorescence intensity (MFI) of each sample was transformed to linearly scale between the MFI's of wildtype and CD47 knockout cells (in case of the 2D3 antibody) and the wildtype and QPCTL knockout cells (in case of the CC2C6 antibody). IC50's were calculated by 3 parameter logistic regression of the CC2C6 signal vs. compound concentration, where the top of the sigmoidal curve was fixed at 1, using R and the drc package (http://www.r-project.org, https://cran.r-project.org/web/packages/drc/index.html).

[3] = biological target: T1, human isoQC (S53-L382) (Homo sapiens, UniProt Q9NXS2); assay: Assay 1 - isoQC inhibition, fluorescent enzymatic assay (single concentration); settings: isoQC inhibition at 250 nM test compound
Procedure: Initially, isoQC inhibitory activity was measured at a single concentration in a fluorescent-based assay (Assay 1 below). In order to establish the inhibitory activity more quantitatively, IC50 values were obtained using a mass spectrometry-based assay where pyroglutamylation by either isoQC or QC was measured (Assays 2 and 4, respectively, below). Alternatively, IC50 values for isoQC or QC were obtained using a fluorescence-based assay (Assays 3 and 5 respectively, below).
(§2) The Golgi luminal, enzymatically active region of human isoQC (S53-L382; see, e.g., Huang et al., 2011) was obtained by expression in E. coli of an N-terminally GST-Enterokinase and C-terminally 6×His tagged construct in the pET41(+) vector and subsequent purification using talon beads and GST beads, enterokinase digestion and further purification with a final formulation in 25 mM Tris pH 8.0/150 mM NaCl/1 mM TCEP. Absence of pyroglutamylating activity in an enzymatic dead variant that was cloned, expressed, and purified in parallel ruled out that the purification strategy isolates any endogenously present pyroglutamylating activity.
(§3) Pyroglutamylation was measured by conversion of glutamine-4-amino-7-methylcoumarine (H-Gln-AMC, Bachem) to pyroglutamyl-AMC, which is subsequently a specific substrate for pyroglutamylaminopeptidase (pGAPase, Qiagen), releasing free AMC which can be fluorescently detected. For a typical inhibition assay, 15 μL 20 μM h-Gln-AMC (diluted from a 40 mM stock dissolved in 25 mM HEPES using 50 mM Tris-HCl pH 8.0) was pipetted into a 96-well plate on ice. Next, 7.5 μL 1 μM test compound (diluted from a 10 mM stock dissolved in DMSO using 50 mM Tris-HCl) was added. Finally, 7.5 μL, 3 ng/μL recombinant isoQC enzyme was added and the reaction mixture was incubated for 1 hour at 37° C. A 5 minute incubation at 98° C. was then performed to denature the isoQC enzyme and stop the reaction.
To detect the amount of pyroglutamyl-AMC formed, a 96-well plate was prepared with 25 μL 0.125 U/mL pGAPase enzyme diluted in 50 mM Tris-HCl pH 8.0 containing 10 mM dithiothreitol (DTT). 25 μL of the pyroglutamylation reaction mixture was transferred into the plate containing the pGAPase solutions while on ice. Once done, the plate was moved over to a Spectramax ID3 fluorescent plate-reader to monitor and record the maximum fluorescence at 380 nm excitation/450 nm emission over a period of 20 minutes while keeping the temperature at 37° C.
DMSO concentrations during the assay never exceeded 1% and activities were compared to controls containing only the same amount of DMSO and no test compound. […] Test compounds were reported as active when <40% of background corrected signal was measured as compared to DMSO controls.

[4] = biological target: T1, human isoQC (S53-L382); assay: Assay 2 - isoQC potency, mass spectrometry-based enzymatic potency assay; settings: read-out: isoQc Pot. Assay No. 2, 7.5 nM isoQC, 10 μM H-Gln-AMC
Procedure: as §2, §1

[5] = biological target: T1, human isoQC (S53-L382); assay: Assay 3 - isoQC potency, fluorescent enzymatic assay; settings: read-out: isoQc Pot. Assay No. 3
Procedure: For this assay specifically, isoQC production was performed slightly different than described in the general methods: The Golgi luminal, enzymatically active region of human isoQC (S53-L382; see, e.g., Huang et al., 2011) was obtained by expression in E. coli of an N-terminally GST Enterokinase and C-terminally 6×His tagged construct in the pET41(+) vector and subsequent purification using Ni-NTA IMAC. Enterokinase digestion ensued, followed by another Ni-NTA IMAC purification, Superdex75 based size exclusion and finally a spin concentration using a 10 kDa molecular weight cutoff. The final protein is formulated in 50 mM Tris-HCl, 150 mM NaCl, 50% Glycerol, pH 7.8.
as §3, with “assay, 7.5 μL aliquots of threefold dilutions of test compound in 50 mM Tris pH8 buffer were plated in 384-well plates.” for “assay,”, “added to each well.” for “pipetted into a 96-well plate on ice. Next, 7.5 μL 1 μM test compound (diluted from a 10 mM stock dissolved in DMSO using 50 mM Tris-HCl) was added.”
(§4) To detect the amount of pyroglutamyl-AMC formed, a 0.125 U/mL pGAPase enzyme diluted in 50 mM Tris-HCl pH 8.0 containing 10 mM dithiothreitol (DTT) solution was prepared. 25 μL of the pyroglutamylation reaction mixture was transferred into an empty plate and to that, 25 μL of the pGAPase enzyme solution was added. Plates were then incubated for 25 minutes at room temperature before fluorescence readings were taken on an Envision2 plate reader with excitation set at 380 nm and emission at 450 nm.
(§5) DMSO concentrations during the assay never exceeded 1% and activities were compared to controls containing only the same amount of DMSO and no test compound. Controls were taken along containing pyroglutamylated-AMC (Bachem, dissolved at 10 mM in DMSO) instead of H-Gln-AMC to control for pGAPase inhibition. IC50 values are calculated using non-linear regression analysis with GraphPad Prism software.

[6] = biological target: Recombinant QC enzyme (residues 33-361 of uniprot ID Q16769) (Homo sapiens, UniProt Q16769); assay: Assay 5 - QC potency, fluorescent enzymatic assay; settings: read-out: QC Pot. Assay No. 5
Description: Recombinant QC enzyme was produced by bacterial expression of residues 33-361 of uniprot ID Q16769, fused to a His tag, codon optimized and cloned into the pET32a plasmid backbone. After scale-up, expression and lysis, protein was purified by Ni-NTA IMAC, dialysed in the presence of Factor Xa, further purified by Ni-NTA reverse IMAC and finally filtrated for size on a Superdex 200 16/60 column. Final protein was concentrated using a spin concentrator at 10 kDa molecular weight cutoff and formulated in 150 mM NaCl, 50 mM Tris-HCl, 50% Glycerol, pH 8.0.
as §3, with “assay, 7.5 μL aliquots of threefold dilutions of test compound in 50 mM Tris pH8 buffer were plated in 384-well plates.” for “assay,”, “added to each well.” for “pipetted into a 96-well plate on ice. Next, 7.5 μL 1 μM test compound (diluted from a 10 mM stock dissolved in DMSO using 50 mM Tris-HCl) was added.”, “QC” for “isoQC”
as §4
as §5, with “inhibition.” for “inhibition. IC50 values are calculated using non-linear regression analysis with GraphPad Prism software.”
IC50 values are calculated using non-linear regression analysis with GraphPad Prism software.

IC50 [1] [nM] | IC50 [2] [nM] | isoQc Inh. Assay No. 1 [3] | IC50 [4] [nM] | IC50 [5] [nM] | IC50 [6] [nM] | Compound
 | 5000 to 50000 |  |  | 100 to 5000 | > 5000 | Cc1c2c(nn1C)C(=O)N(c1ccn3ccnc3c1)C2c1ccc(-c2cnn(C(F)(F)F)c2)cc1F (single isomer, unassigned) [FRPPO-160B]
 |  |  |  | 25 to 100 | 25 to 100 | Cc1c2c(nn1C)C(=O)N(c1ccn3ccnc3c1)C2c1ccc(N2CCC(F)(F)C2)cc1F (single isomer, unassigned) [FRPPO-158C]
 |  |  |  | 100 to 5000 | 100 to 5000 | Cc1[nH]nc2c1C(c1ccc(-c3cnn(C(F)(F)F)c3)cc1F)N(c1ccn3ccnc3c1)C2=O (single isomer, unassigned) [FRPPO-162B]
 |  |  |  | 100 to 5000 | 100 to 5000 | Cc1c2c(nn1C)C(=O)N(c1ccn3ccnc3c1)C2c1ccc(N2CCC(F)(F)C2)cc1F (single isomer, unassigned) [FRPPO-158B]
 | < 1000 |  |  | < 25 | 25 to 100 | Cc1[nH]nc2c1C(c1ccc(-c3cnn(C(F)(F)F)c3)cc1F)N(c1ccn3ccnc3c1)C2=O (single isomer, unassigned) [FRPPO-162C]
 | < 1000 |  |  | < 25 | < 25 | Cc1c2c(nn1C)C(=O)N(c1ccn3ccnc3c1)C2c1ccc(-c2cnn(C(F)(F)F)c2)cc1F (single isomer, unassigned) [FRPPO-160C]

The remaining lines, values behind:

Compound | IC50 [1] [nM] | IC50 [2] [nM] | isoQc Inh. Assay No. 1 [3] | IC50 [4] [nM] | IC50 [5] [nM] | IC50 [6] [nM]
CCCOc1ccc(C2c3c(nn(C)c3C)C(=O)N2c2ccc3[nH]cnc3c2)c(F)c1 (single isomer, unassigned) | 25 to 100 | < 1000 | + ((+) > 40% isoQC inhibition at 250 nM) | < 25 |  | 
Cc1c2c(nn1C)C(=O)N(c1ccc3[nH]cnc3c1)C2c1ccc(Br)cc1F (single isomer, unassigned) | 25 to 100 | < 1000 | + ((+) > 40% isoQC inhibition at 250 nM) | < 25 |  | 
Cc1[nH]nc2c1C(c1ccc(N3CCC(F)(F)C3)cc1F)N(c1ccn3ccnc3c1)C2=O (single isomer, unassigned) [FRPPO-159C] |  |  |  |  | < 25 | 100 to 5000
Cc1[nH]nc2c1C(c1ccc(N3CCC(F)(F)C3)cc1F)N(c1ccn3ccnc3c1)C2=O (single isomer, unassigned) [FRPPO-159B] |  |  |  |  | 100 to 5000 | 100 to 5000
Cc1c2c(nn1C)C(=O)N(c1ccc3[nH]cnc3c1)C2c1ccc(OCCC(F)F)c(F)c1F (single isomer, unassigned) | < 25 | < 1000 | + ((+) > 40% isoQC inhibition at 250 nM) | < 25 |  | 
CCCOc1ccc(C2c3c(nn(C)c3C(C)C)C(=O)N2c2ccc3[nH]cnc3c2)cc1 (single isomer, unassigned) | 25 to 100 | < 1000 | + ((+) > 40% isoQC inhibition at 250 nM) | 25 to 100 |  | 
